Results from ChEMBL document CHEMBL1132702, “5'-N-substituted carboxamidoadenosines as agonists for adenosine receptors” (J Med Chem, 1999).

Protein sequences, listed by entry. Tags and fused reporters are not part of them.
UniProt P25099, whole entry: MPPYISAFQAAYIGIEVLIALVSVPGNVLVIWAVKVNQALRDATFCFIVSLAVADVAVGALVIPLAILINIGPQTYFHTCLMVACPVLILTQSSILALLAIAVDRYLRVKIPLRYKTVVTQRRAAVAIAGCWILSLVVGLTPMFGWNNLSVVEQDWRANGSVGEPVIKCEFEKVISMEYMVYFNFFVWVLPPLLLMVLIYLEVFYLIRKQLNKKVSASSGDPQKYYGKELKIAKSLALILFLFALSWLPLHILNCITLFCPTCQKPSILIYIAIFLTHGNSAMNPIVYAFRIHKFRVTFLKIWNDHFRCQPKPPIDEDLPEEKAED

Columns and labels:
[1] = target: T1, Adenosine receptor A1 (Rattus norvegicus, UniProt P25099); experiment: Ability to displace radioligand [3H]- DPCPX from adenosine A1 receptor on rat cortical membrane in the presence of 1 mM of GTP
[2] = target: T1, Adenosine receptor A1

- Ki [1]: 0.172 µM
- Ki [2]: 0.043 µM
Structure (SMILES): Nc1ncnc2c1ncn2[C@@H]1O[C@H](C(=O)NC2CCC2)[C@@H](O)[C@H]1O
